For orientation: pKd means the Kd on a negative log10 scale, so that one unit is a factor of ten. Low readings indicate a high Kd, high ones a low Kd.

Test [1] concerns the target porcine gelatin (denatured collagen) (porcine). Put plainly: fluorescence retention in crosslinked gelatin films.
The target is the same in test [2]. Put plainly: fluorescence on crosslinked gelatin, non-preheated peptides (FIG. 17).
The target is the same in test [3]. In words: fluorescence on crosslinked gelatin, non-preheated peptides, 20 h wash at 37 °C (FIG. 17).
For test [4] the target is unchanged. Put plainly: fluorescence of CF peptide (20 µM) on crosslinked gelatin films, 37 °C overnight, no preheating.
The target is the same in test [5]. Put plainly: ELISA-like assay, 25 °C.

pKd: −log10 of the molar value.

The substance CF-6d, [CF-G3(GPO)6G3]2KG (peptide) returned a percent retention in test [1] of 66%. The substance further showed a percent higher initial binding (against the monomeric CHP) in test [2] of 350%. The percent more peptide remaining after 20 h wash at 37 °C (against the monomeric CHP) in test [3] is 50%. Further, the fold binding against comparable length CHPs as previously reported in test [4] is 4 fold.
The substance CF-9, CF-G3-(GPO)9 (peptide) had a percent retention in test [1] of 58%.
In test [4], CF-9d, [CF-Ahx-(GPO)9G3]2KG (peptide) registered a fold binding against comparable length CHPs as previously reported of 4 fold.
As for b-6d, [(GPO)6G3]2KG3K^Biotin (peptide), in test [5], the pKd is 6.21.
Substance b-9, (GPO)9-G3K^Biotin (peptide) had a pKd in test [5] of 6.24.
